Molecules are shown by their SMILES. Where only a bound is given, the exact number is not on record here.

By UniProt entry, the sequences of proteins in these tests, tags left out.
UniProt P14902, whole entry: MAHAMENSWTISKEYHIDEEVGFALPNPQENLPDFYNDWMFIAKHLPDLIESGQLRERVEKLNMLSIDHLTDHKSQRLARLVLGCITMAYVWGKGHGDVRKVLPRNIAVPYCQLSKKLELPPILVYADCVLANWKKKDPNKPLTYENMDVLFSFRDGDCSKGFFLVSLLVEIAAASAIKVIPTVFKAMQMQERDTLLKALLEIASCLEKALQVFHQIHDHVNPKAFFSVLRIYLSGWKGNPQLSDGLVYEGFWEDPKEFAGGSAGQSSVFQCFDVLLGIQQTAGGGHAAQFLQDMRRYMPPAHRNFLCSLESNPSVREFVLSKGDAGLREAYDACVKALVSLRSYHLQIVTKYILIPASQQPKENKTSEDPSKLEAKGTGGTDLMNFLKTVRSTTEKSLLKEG

The assay concerns the target IDO1 (Homo sapiens, UniProt P14902). Put plainly: IDO1 Cellular Assay in HeLa Cells Stimulated with IFNγ. In kind it is cell-based. As to conditions: HeLa cells stimulated with IFNγ 100 ng/mL, 300 uM L-tryptophan, about 48 hours, fluorescence readout; read-out: HeLa Cell Potency, IC50.
On to `CC1CC1(NC(=O)c1ccc(F)cc1)c1ccc(-c2cnc(C(F)(F)F)cc2C(C)(C)O)nc1` (single isomer, unassigned) [Example 55, 4-fluoro-N-(1-(4′-(2-hydroxypropan-2-yl)-6′-(trifluoromethyl)-[2,3′-bipyridin]-5-yl)-2-methylcyclopropyl)benzamide], for which the IC50 (as a rule, the point on the concentration scale where inhibition reaches its midpoint) was found to be 26.5 nM.

Regarding `CC1CC1(NC(=O)c1ccc(F)cc1)c1ccc(-c2cnc(C(F)(F)F)cc2C(C)(C)O)nc1` (single isomer, unassigned) [Example 56, 4-fluoro-N-(1-(4′-(2-hydroxypropan-2-yl)-6′-(trifluoromethyl)-[2,3′-bipyridin]-5-yl)-2-methylcyclopropyl)benzamide], the IC50 was 8.3 nM.

As to `CC1CC1(NC(=O)c1ccc(F)cc1)c1ccc(-c2cnc(C(F)(F)F)cc2C(C)(C)O)nc1` (single isomer, unassigned) [Example 57], the IC50 was 41.7 nM.

Take `CC1CC1(NC(=O)c1ccc(F)cc1)c1ccc(-c2cnc(C(F)(F)F)cc2C(C)(C)O)nc1` (single isomer, unassigned) [Example 58]: the IC50 amounted to 9.9 nM.

On to `CC1CC1(NC(=O)c1ccc(F)cc1)c1ccc(-c2cnc(C(F)(F)F)cc2C(C)(C)O)nc1` (single isomer, unassigned) [Example 59], for which the half-inhibitory concentration (IC50) was 4.9 nM.

For the compound `CC1CC1(NC(=O)c1ccc(F)cc1)c1ccc(-c2cnc(C(F)(F)F)cc2C(C)(C)O)nc1` (single isomer, unassigned) [Example 60], the IC50 is 3.8 nM.

Consider `CC(C)Oc1ccc(-c2ccc(C3(NC(=O)c4ccc(C#N)cc4)CCC3)cc2)cn1` [Example 1, 4-Cyano-N-(1-(4-(6-isopropoxypyridin-3-yl)phenyl)cyclobutyl)benzamide], for which the IC50 turned out to be 3.8 nM.

`CC(C)Oc1ccc(-c2ccc(C3(NC(=O)c4ccc(C#N)cc4)CCC3)cc2)c(Cl)n1` [Example 2, N-(1-(4-(2-Chloro-6-isopropoxypyridin-3-yl)phenyl)cyclobutyl)-4-cyanobenzamide]: the IC50 came to 3.7 nM.

With `COc1cc(C)c(-c2ccc(C3(NC(=O)c4ccc(C#N)cc4)CCC3)cc2)cn1` [Example 3, 4-Cyano-N-(1-(4-(6-methoxy-4-methylpyridin-3-yl)phenyl)cyclobutyl)benzamide], the IC50 turned out to be 5.2 nM.

As for `N#Cc1ccc(C(=O)NC2(c3ccc(-c4ccc(OC(F)F)nc4)cc3)CCC2)cc1` [Example 4, 4-Cyano-N-(1-(4-(6-(difluoromethoxy)pyridin-3-yl)phenyl)cyclobutyl)benzamide], the IC50 came to 7.1 nM.

In the case of `N#Cc1ccc(C(=O)NC2(c3ccc(-c4ccc(OC5CC5)nc4)cc3)CCC2)cc1` [Example 5, 4-Cyano-N-(1-(4-(6-cyclopropoxypyridin-3-yl)phenyl)cyclobutyl)benzamide], the IC50 amounted to 18.2 nM.

Regarding `N#Cc1ccc(C(=O)NC2(c3ccc(-c4ccc(C5CC5)nc4)c(F)c3)CCC2)cc1` [Example 6, 4-Cyano-N-(1-(4-(6-cyclopropylpyridin-3-yl)-3-fluorophenyl)cyclobutyl)benzamide], the IC50 came to 36.6 nM.

As to `Cc1cc(C2CC2)ncc1-c1ccc(C2(NC(=O)c3ccc(C#N)cc3)CCC2)cc1F` [Example 7, 4-Cyano-N-(1-(4-(6-cyclopropyl-4-methylpyridin-3-yl)-3-fluorophenyl)cyclobutyl)benzamide], the IC50 is 4.4 nM.

`N#Cc1ccc(C(=O)NC2(c3ccc(-c4cncc(NS(=O)(=O)C5CC5)c4)cc3)CCC2)cc1` [Example 8, 4-cyano-N-(1-(4-(5-(cyclopropanesulfonamido)pyridin-3-yl)phenyl)cyclobutyl)benzamide]: the IC50 stood at 2830 nM.

Turning to `N#Cc1ccc(C(=O)NC2(c3ccc(-c4cnc(C5CC5)nc4)cc3)CCC2)cc1` [Example 9, 4-cyano-N-(1-(4-(2-cyclopropylpyrimidin-5-yl)phenyl)cyclobutyl)benzamide], the IC50 is 19.1 nM.

`CC(C)(O)c1ccc(-c2ccc(C3(NC(=O)c4ccc(C#N)cc4)CCC3)cc2)cn1` [Example 10, 4-cyano-N-(1-(4-(6-(2-hydroxypropan-2-yl)pyridin-3-yl)phenyl)cyclobutyl)benzamide]: the IC50 was determined as 445 nM.

Consider `Cc1cc(C(F)(F)F)ncc1-c1ccc(C2(NC(=O)c3ccc(C#N)cc3)CCC2)cc1` [Example 11, 4-cyano-N-(1-(4-(4-methyl-6-(trifluoromethyl)pyridin-3-yl)phenyl)cyclobutyl)benzamide], for which the IC50 was determined as 3 nM.

For the compound `Cc1cc(C2CC2)ncc1-c1ccc(C2(NC(=O)c3ccc(C#N)cc3)CCC2)cc1` [Example 12, 4-cyano-N-(1-(4-(6-cyclopropyl-4-methylpyridin-3-yl)phenyl)cyclobutyl)benzamide], the IC50 was determined as 2.1 nM.

As to `N#Cc1ccc(C(=O)NC2(c3ccc(-c4ccc(C5CC5)nc4)cc3)CCC2)cc1` [Example 13, 4-cyano-N-(1-(4-(6-cyclopropylpyridin-3-yl)phenyl)cyclobutyl)benzamide], the IC50 was found to be 14.6 nM.

For the compound `N#Cc1ccc(C(=O)NC2(c3ccc(-c4ccc(C#N)nc4)cc3)CCC2)cc1` [Example 14, 4-cyano-N-(1-(4-(6-cyanopyridin-3-yl)phenyl)cyclobutyl)benzamide], the IC50 was 67.7 nM.

As to `CC(O)c1ccc(-c2ccc(C3(NC(=O)c4ccc(C#N)cc4)CCC3)cc2)cn1` (stereo not drawn) [Example 15, 4-cyano-N-(1-(4-(6-(1-hydroxyethyl)pyridin-3-yl)phenyl)cyclobutyl)benzamide], the IC50 amounted to 319 nM.

`Cc1cc(C#N)ncc1-c1ccc(C2(NC(=O)c3ccc(C#N)cc3)CCC2)cc1` [Example 16, 4-cyano-N-(1-(4-(6-cyano-4-methylpyridin-3-yl)phenyl)cyclobutyl)benzamide]: the 50% inhibitory concentration (IC50) is 17.1 nM.

For the compound `Cc1noc(-c2ccc(-c3ccc(C4(NC(=O)c5ccc(C#N)cc5)CCC4)cc3)cn2)n1` [Example 17, 4-cyano-N-(1-(4-(6-(3-methyl-1,2,4-oxadiazol-5-yl)pyridin-3-yl)phenyl)cyclobutyl)benzamide], the IC50 turned out to be 153 nM.

As to `COc1cc(CO)ncc1-c1ccc(C2(NC(=O)c3ccc(C#N)cc3)CCC2)cc1` [Example 18, 4-cyano-N-(1-(4-(6-(hydroxymethyl)-4-methoxypyridin-3-yl)phenyl)cyclobutyl)benzamide], the IC50 is 197 nM.

As for `CS(=O)(=O)Cc1ccc(-c2ccc(C3(NC(=O)c4ccc(C#N)cc4)CCC3)cc2)cn1` [Example 19, 4-cyano-N-(1-(4-(6-((methylsulfonyl)methyl)pyridin-3-yl)phenyl)cyclobutyl)benzamide], the IC50 was no less than 10000 nM.

Take `N#Cc1ccc(C(=O)NC2(c3ccc(-c4ccc(C(F)(F)F)nc4)cc3)CCC2)cc1` [Example 20, 4-cyano-N-(1-(4-(6-(trifluoromethyl)pyridin-3-yl)phenyl)cyclobutyl)benzamide]: the IC50 amounted to 18.5 nM.

For the compound `N#Cc1ccc(C(=O)NC2(c3ccc(-c4ccc(C(F)F)nc4)cc3)CCC2)cc1` [Example 21, 4-cyano-N-(1-(4-(6-(difluoromethyl)pyridin-3-yl)phenyl)cyclobutyl)benzamide], the IC50 turned out to be 30.2 nM.

For the compound `N#Cc1ccc(C(=O)NC2(c3ccc(-c4ccc(C(=O)O)nc4)cc3)CCC2)cc1` [Example 22, 5-(4-(1-(4-cyanobenzamido)cyclobutyl)phenyl)picolinic acid], the IC50 is no less than 10000 nM.

`N#Cc1ccc(C(=O)NC2(c3ccc(-c4ccc(C(O)C(F)(F)F)nc4)cc3)CCC2)cc1` (stereo not drawn) [Example 23, 4-cyano-N-(1-(4-(6-(2,2,2-trifluoro-1-hydroxyethyl)pyridin-3-yl)phenyl)cyclobutyl)benzamide]: the IC50 is 116 nM.

`N#Cc1ccc(C(=O)NC2(c3ccc(-c4ccc(CO)nc4)cc3)CCC2)cc1` [Example 24, 4-cyano-N-(1-(4-(6-(hydroxymethyl)pyridin-3-yl)phenyl)cyclobutyl)benzamide]: the IC50 came to 316 nM.

Take `N#Cc1ccc(C(=O)NC2(c3ccc(-c4ccc(C5CC5)nc4CO)cc3)CCC2)cc1` [Example 25, 4-cyano-N-(1-(4-(6-cyclopropyl-2-(hydroxymethyl)pyridin-3-yl)phenyl)cyclobutyl)benzamide]: the IC50 was 9.9 nM.

As for `N#Cc1ccc(C(=O)NC2(c3ccc(-c4cnc(C5CC5)cn4)cc3)CCC2)cc1` [Example 26, 4-cyano-N-(1-(4-(5-cyclopropylpyrazin-2-yl)phenyl)cyclobutyl)benzamide], the IC50 worked out at 45.5 nM.

`N#Cc1ccc(C(=O)NC2(c3ccc(-c4cnc(OCCF)cn4)cc3)CCC2)cc1` [Example 27, 4-cyano-N-(1-(4-(5-(2-fluoroethoxy)pyrazin-2-yl)phenyl)cyclobutyl)benzamide]: the half-inhibitory concentration (IC50) came out at 95.2 nM.

As to `CC(C)c1ccc(-c2ccc(C3(NC(=O)c4ccc(C#N)cc4)CCC3)cc2)nn1` [Example 28, 4-cyano-N-(1-(4-(6-isopropylpyridazin-3-yl)phenyl)cyclobutyl)benzamide], the IC50 came out at 31.7 nM.

As to `COc1cc(C(F)(F)F)c(-c2ccc(C3(NC(=O)c4ccc(C#N)cc4)CCC3)cc2)cn1` [Example 29, 4-cyano-N-(1-(4-(6-methoxy-4-(trifluoromethyl)pyridin-3-yl)phenyl)cyclobutyl)benzamide], the IC50 amounted to 28.5 nM.

As for `COc1ccc(-c2ccc(C3(NC(=O)c4ccc(C#N)cc4)CCC3)cc2)c(C)n1` [Example 30, 4-cyano-N-(1-(4-(6-methoxy-2-methylpyridin-3-yl)phenyl)cyclobutyl)benzamide], the IC50 amounted to 4.4 nM.

`N#Cc1ccc(C(=O)NC2(c3ccc(-c4cnc(C(F)(F)F)cc4C(F)(F)F)cc3)CCC2)cc1` [Example 31, N-(1-(4-(4,6-bis(trifluoromethyl)pyridin-3-yl)phenyl)cyclobutyl)-4-cyanobenzamide]: the IC50 worked out at 15.1 nM.

Turning to `COc1cc(C(F)(F)F)ncc1-c1ccc(C2(NC(=O)c3ccc(C#N)cc3)CCC2)cc1` [Example 33, 4-cyano-N-(1-(4-(4-methoxy-6-(trifluoromethyl)pyridin-3-yl)phenyl)cyclobutyl)benzamide], the 50% inhibitory concentration (IC50) came out at 8.9 nM.

For `N#Cc1ccc(C(=O)NC2(c3ccc(-c4cnc(C(F)(F)F)cc4CO)cc3)CCC2)cc1` [Example 35, 4-cyano-N-(1-(4-(4-(hydroxymethyl)-6-(trifluoromethyl)pyridin-3-yl)phenyl)cyclobutyl)benzamide], the IC50 was 8.2 nM.
